Assay results taken from US4761478A, “3-deazaguanine sulfonic acid salts” (Warner-Lambert Company, priority 1986, dated 1988).

Assay: Water solubility of 3-deazaguanine and its acid addition salts (Table I)
Format: physicochemical
Details: 3-deazaguanine salts
Procedure: The common acids employed for the formulation of acid addition salts of pharmaceutical bases are listed in J. Pharm. […] The solubility values presented in Table I were determined as follows: 3-deazaguanine (250 mg) was suspended in a small volume of water and one equivalent weight of the acid was added with stirring. Stirring was continued and small volumes of water were added intermittently until complet solution was obtained.

With Hydrochloric the “water solubility (in words)” value was “poorly soluble”.
